Assay: CNS penetration across the brain blood barrier
Details: in vivo
Description: Mice are dosed with compounds. Brain to blood ratios are determined by HPLC and LC/MS/MS analysis following oral administration of the test compounds in mice.

## Ibogaine
  Crossing of the BBB and concentration in brain: cross the BBB and reach micromolar concentrations in brain
